## Measured affinities in a library of Ab-14 light chain variants

The target is the same throughout: PDVDLGDISGINAS, from the HR2 region of SARS-CoV-2 spike.

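Phage display of a naive human antibody library on the peptide gave the parent. These sequences belong to a second round, designed from the earlier measurements on random variants of the parent. Several design methods are mixed in this list. Affinity was read by AlphaSeq, a pooled yeast mating assay with surface-displayed partners. Pairs that bind mate more often; barcode pairs of the diploids are counted by sequencing. Read counts were normalised to the haploid input and turned into Kd by a linear fit to BCL2-family pairs of known affinity, for each replicate. Each pool was mated in six replicate cultures.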

The variants keep the heavy chain, the linker and the frameworks of Ab-14 (scFv order VH, a 15-residue (Gly4Ser)3 linker, VL).
VH: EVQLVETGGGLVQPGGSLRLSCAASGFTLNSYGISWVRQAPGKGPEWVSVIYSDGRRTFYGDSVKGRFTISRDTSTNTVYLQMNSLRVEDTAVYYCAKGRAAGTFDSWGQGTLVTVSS
VL: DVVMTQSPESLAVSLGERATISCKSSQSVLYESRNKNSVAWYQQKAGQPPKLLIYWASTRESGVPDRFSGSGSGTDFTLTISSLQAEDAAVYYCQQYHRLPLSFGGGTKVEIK

Each variant is given by its three light chain CDRs, as the data file delimits them; those of the parent are KSSQSVLYESRNKNSVA, WASTRES, QQYHRLPLS.
This list holds designs with more than six substitutions.
Kd is apparent (estimated from mating counts) and averaged on the log scale over replicates with a signal. Smaller is tighter.

Variant KFSQSNLYEDRNQNSVA / NASQRLQ / QDYHRLPLS gave 2.3 nM (6 of 6 replicates). For KISQSVLFFGHAINSVA / EMETREN / QQYDRLPLS, the assay gave 19 nM (6 of 6 replicates). For TISQVMNTLTRHGNNVA / DLAERED / QQYYRLPLS, the assay gave 2.1 nM (6 of 6 replicates). Variant QLHAYTQGFKRADGNIA / EISYRAI / QQYGRLPLS showed 8.4 nM (6 of 6 replicates). Variant MVYESMDQAMRTHNSIA / DNQTRES / QQYDRLPLS gave 250 nM (5 of 6 replicates). Variant MISQLMNAGQFAINSVA / QAEIRNN / QQYDRLPLA gave 25 nM (4 of 6 replicates). Variant SMSNLQEVPDVWKNSIA / DAEHVEY / QQYSRLPLT gave 2.2 nM (6 of 6 replicates). With KLQQSWEYGSRNANSVA / NASQREE / QQYHRLPLS the result was 2.7 nM (6 of 6 replicates). For KIASSMNLTSHHINSVA / QSETRED / QQYNHLPLS, the assay gave 15 nM (6 of 6 replicates).

With NLTAKQNQYDQNYSNVA / EATNSEQ / QQYKHLPLS the result was 320 nM (4 of 6 replicates). Variant KIEQSMLYESRNSNSVA / NASTRMD / QQYHRLPLM gave 880 pM (6 of 6 replicates). Variant RIDSVWEMLTNRAQNIA / NATTVIA / QDYMRLPLV showed 16 nM (6 of 6 replicates). Variant MSYGGDMLESVTRNSVA / NAETREE / QDYHRLPLS gave 21 nM (6 of 6 replicates). For ALTNEPESVNHHKNNVA / HTSKRCM / QQYARLPLS, the assay gave 17 nM (6 of 6 replicates). Variant VMQMDNDRANDITYAIA / DVTMREK / QQYNRLPLM showed 21 nM (6 of 6 replicates). Variant KSSQLELYESRMKNSVA / NASYRLD / QQYHRLPLS showed 2.6 nM (6 of 6 replicates). With TIDQYTSYENGENRAIA / DVSIKDY / QQYARLPLL the result was 37 nM (5 of 6 replicates). Variant MISQVMNTLTRHGNNVA / DLQERED / QQYFRLPLS showed 11 nM (6 of 6 replicates).

For KIFQSWLYEQRNVNSVA / NASQRLD / QQYHRLPLS, the assay gave 1.9 nM (6 of 6 replicates). For NVDISENVNYNHKAAVA / GHDERVG / QQYSRLPLS, the assay gave 1.3 nM (6 of 6 replicates). Variant KMSQSDEYESRQFNSVA / NASTRMM / QQYHRLPLS showed 1.1 nM (6 of 6 replicates). Variant MISQVMNTLTRNGNNVA / DLTNRED / QQYFRLPLS gave 5.6 nM (6 of 6 replicates). For MISQLYNMGQFAINSVA / QASQRNA / QQYDRLPLE, the assay gave 12 nM (6 of 6 replicates). Variant KVDQDDLYENRNKNSVA / QGSTRES / QQYHRLPLH gave 3.2 nM (5 of 6 replicates). For KISFQYRYEQLSKNSIA / EAQTRLK / QQYHRLPIS, the assay gave 39 nM (6 of 6 replicates). Variant VLGGQWGLGTTQNSSIA / NDSETML / QQYWRLPLM showed 310 nM (3 of 6 replicates). Variant KFSQMVLTGLYVSNSVA / QMSTRVN / QQYHRLPLM showed 5.7 nM (6 of 6 replicates).

Variant KLSMITGHMSMQRNNVA / EMVTREN / QQYDRLPLS gave 4.4 nM (6 of 6 replicates). Variant HVSESVFAQSKMRNSVA / ENSTRES / QQYDRLPLS showed 8.8 nM (6 of 6 replicates). Variant MISQLYNMGSFAINSVA / QASLRNE / QQYDRLPLM showed 21 nM (6 of 6 replicates). With KLQQLGLYEQRNKNSVA / SASTRCS / QQYHRLPLS the result was 970 pM (6 of 6 replicates). With ALSQSMDMTSRNHNSVA / DLTTREN / QQYHRLPLS the result was 960 pM (6 of 6 replicates). With MISDLTMYGSRNVNSVA / DLSNRGS / QQYDRLPLS the result was 7.0 nM (6 of 6 replicates). With KISQMVRVGLTHSNSIA / EEETRAK / QQYHRLPLA the result was 28 nM (6 of 6 replicates). Variant SLAMFEDNYNQLHNSVA / NTANIDI / QQYDRLPLS gave 440 nM (3 of 6 replicates). Variant HVSNLLTDEMTREYNIA / ETSHVEE / QQYERLPLI gave 5.2 nM (6 of 6 replicates).

Variant QLEQLQWPMGKDWHSIA / NATTLLA / QQYYYLPLM gave 24 nM (4 of 6 replicates). With KLSQSVLGGSRNKNSVA / HANQRES / QQYHRLPLY the result was 5.4 nM (6 of 6 replicates). With MLGNKPTSFRNNKNAIA / DDEARTS / QQYDRLPLS the result was 15 nM (6 of 6 replicates). Variant TISQMQPLFSQSINNVA / EVSAREN / QQYDRLPLS showed 4.4 nM (6 of 6 replicates). Variant HLGQEGYNQTYAMDAVA / DQNTALE / QHYSRLPLT showed 120 nM (4 of 6 replicates). With MISDLTYLGLRNVNSVA / DLTMRGN / QQYDRLPLS the result was 11 nM (6 of 6 replicates). Variant MFSQSVMIGSFYQNSVA / QTSTRES / QQYDRLPLS showed 8.6 nM (6 of 6 replicates).

Picked from the list: the 3 lowest averages where every replicate gave a value.

| CDR-L1 | CDR-L2 | CDR-L3 | apparent Kd | seen in |
|---|---|---|---|---|
| KIEQSMLYESRNSNSVA | NASTRMD | QQYHRLPLM | 880 pM | 6 of 6 |
| ALSQSMDMTSRNHNSVA | DLTTREN | QQYHRLPLS | 960 pM | 6 of 6 |
| KLQQLGLYEQRNKNSVA | SASTRCS | QQYHRLPLS | 970 pM | 6 of 6 |

Empty control strains, which show no peptide, gave a signal in 4% of pairings with all light chain designs; the median was 430 nM and 95% of these signals were weaker than 38 nM. No background was subtracted.
The authors averaged sequences with at least three values out of six and counted those with two or fewer as poor binders.
A sequence measured in both rounds can read differently, since the two assays cover different ranges.

The measurements come from Li et al. 2023 (doi:10.1038/s41467-023-39022-2) through the FLAb antibody collection.